Data taken from US20250093263A1, “FRET-BASED ASSAYS” (The General Hospital Corporation, priority 2021, published 2025).
Read-outs that look alike come from different tables or passages of the source.

Protein sequences, listed by entry. Tags and fused reporters are not part of them.
UniProt Q14145, whole entry: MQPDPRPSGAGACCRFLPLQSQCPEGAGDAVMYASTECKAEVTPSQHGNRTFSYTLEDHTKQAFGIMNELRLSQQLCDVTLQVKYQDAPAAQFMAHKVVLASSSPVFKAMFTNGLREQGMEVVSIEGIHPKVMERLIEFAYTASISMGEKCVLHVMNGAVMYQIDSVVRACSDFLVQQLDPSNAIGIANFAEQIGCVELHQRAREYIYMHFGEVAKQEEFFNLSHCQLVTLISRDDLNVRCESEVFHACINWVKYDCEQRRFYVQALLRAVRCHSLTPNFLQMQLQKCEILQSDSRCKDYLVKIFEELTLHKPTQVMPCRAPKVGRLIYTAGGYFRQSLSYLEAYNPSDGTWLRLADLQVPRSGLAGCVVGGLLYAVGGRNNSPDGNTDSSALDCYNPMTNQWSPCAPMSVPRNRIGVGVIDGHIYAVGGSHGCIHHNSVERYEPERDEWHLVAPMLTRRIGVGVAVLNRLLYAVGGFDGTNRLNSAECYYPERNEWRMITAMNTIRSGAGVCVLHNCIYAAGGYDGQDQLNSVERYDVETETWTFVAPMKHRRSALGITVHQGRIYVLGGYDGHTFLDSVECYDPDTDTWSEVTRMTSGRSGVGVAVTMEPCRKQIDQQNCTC

Legend:
Keap1 (His/GST) [1] = biological target: T1, Keap1 (His/GST) (Homo sapiens, UniProt Q14145); assay: Keap1 TR-FRET Assay 3 (CDDO-FITC/Tb-Anti-6xHis); assay type: binding
Keap1 (His/GST) [2] = biological target: T1, Keap1 (His/GST); assay: biochemical
[3] = biological target: T2, WT Keap1 (tag-free, full-length) (Homo sapiens, UniProt Q14145); assay: biochemical
[4] = biological target: T2, WT Keap1 (tag-free, full-length); assay: biochemical; remark: listed apart in the source

Row | Kd (Keap1 (His/GST) [1]; 6×His/GST Keap1, CoraFluor-labeled anti-6×His antibody, read-out: Kd,app of CDDO-FITC) [µM] | Structure (SMILES) | IC50 (Keap1 (His/GST) [1]) [µM] | IC50 (Keap1 (His/GST) [2]) [µM] | IC50 [3] [µM] | Kd [3] [µM] | IC50 [4] [µM] | Kd [4] [µM]
1 | 0.0068 ± 0.0011 | CC1(C)CC[C@]2(C(=O)NCCCOCCOCCOCCCNC(=S)Nc3ccc(-c4c5ccc(=O)cc-5oc5cc(O)ccc45)c(C(=O)O)c3)CC[C@]3(C)[C@H](C(=O)C=C4[C@@]5(C)C=C(C#N)C(=O)C(C)(C)[C@@H]5CC[C@]43C)[C@@H]2C1 [CDDO-FITC, 5-(3-(1-((4aS,6aR,6bS,8aR,12aS,14aR,14bS)-11-cyano-2,2,6a,6b,9,9,12a-heptamethyl-10,14-dioxo-1,3,4,5,6,6a,6b,7,8,8a,9,10,12a,14,14a,14b-hexadecahydropicen-4a(2H)-yl)-1-oxo-6,9,12-trioxa-2-azapentadecan-15-yl)thioureido)-2-(6-hydroxy-3-oxo-3H-xanthen-9-yl)benzoic acid] | – | – | – | – | – | –
2 | – | CC1=C(O)C(=O)C=C2C1=CC=C1[C@@]2(C)CC[C@@]2(C)[C@@H]3C[C@](C)(C(=O)O)CC[C@]3(C)CC[C@]12C [CS, celastrol] | 13 | 16.8 | 30.9 | 11.2 | 21.8 | 11.4
